# The list shows a part of the results, in another mix than the full data. Activity calls are given as the source filed them.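 Rule for the calls: active = growth inhibition above 90% in viable cell count at a single dose; inactive = growth inhibition below 90%.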
# Experiment: HT29 colon tumor cell growth inhibition, primary screen, imaging, high content imaging, 24 h, CellTiter-Glo (AID 770)
# Conditions: HT29 cell number by imaging, at 10 µM, active compounds read high
row,SMILES,growth inhibition
1,CCN(CC)CC(O)COC(=O)C(O)(c1ccccc1)C1CCCCC1 (stereo unspecified),inactive: 26.7%
